Results published in patent US20220017495A1, “CONJUGATES OF BIVALENT EVANS BLUE DYE DERIVATIVES AND METHODS OF USE” (THE UNITED STATES OF AMERICA, AS REPRESENTED BY THE …, priority 2019, published 2022).

Protein sequences, listed by entry. Tags and fused reporters are not part of them. Residues count along the entry.
UniProt P02768, 25-609: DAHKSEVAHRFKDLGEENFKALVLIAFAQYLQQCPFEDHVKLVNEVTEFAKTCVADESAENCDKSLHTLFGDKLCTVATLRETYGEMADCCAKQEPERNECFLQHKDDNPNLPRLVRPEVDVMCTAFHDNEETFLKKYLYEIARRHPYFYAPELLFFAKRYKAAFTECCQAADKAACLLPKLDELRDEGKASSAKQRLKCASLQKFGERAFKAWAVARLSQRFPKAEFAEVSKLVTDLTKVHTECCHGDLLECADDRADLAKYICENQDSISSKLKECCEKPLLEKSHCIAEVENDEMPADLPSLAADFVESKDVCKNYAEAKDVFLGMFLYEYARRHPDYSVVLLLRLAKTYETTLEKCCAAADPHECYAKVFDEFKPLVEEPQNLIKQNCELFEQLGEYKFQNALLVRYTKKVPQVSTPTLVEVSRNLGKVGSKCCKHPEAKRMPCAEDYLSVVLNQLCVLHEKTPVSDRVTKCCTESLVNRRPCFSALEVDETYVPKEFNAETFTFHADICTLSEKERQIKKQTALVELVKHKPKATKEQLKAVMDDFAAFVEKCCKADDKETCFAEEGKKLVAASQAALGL
UniProt P02768, 404-601: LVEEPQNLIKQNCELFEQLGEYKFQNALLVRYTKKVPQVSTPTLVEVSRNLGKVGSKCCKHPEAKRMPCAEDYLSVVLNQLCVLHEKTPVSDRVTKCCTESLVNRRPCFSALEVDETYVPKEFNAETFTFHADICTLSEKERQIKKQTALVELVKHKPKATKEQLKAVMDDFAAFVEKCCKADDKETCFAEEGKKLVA

Columns and labels:
[1] = target: human serum albumin (HSA) (Homo sapiens, UniProt P02768); test: in vitro; conditions: pH 7.4
Procedure: In this study, we used the streptavidin conjugated biosensors (Pall Fort6Bio LLC, CA). We preincubated the biosensors with biotinylated HSA (Abeam Inc., Cambridge, Mass.) for 10 minutes. After removing the unbound biotinylated HSA, the biosensors were washed for 1 minute. After blocking the spare biosensor, we added EZ-Link™ Sulfo-NHS-Biotin (Thermo Fisher Scientific, Rockford, Ill.) to each well and then removed it and washed the wells.
Association of a given dilution of a compound with the albumin-derivatized biosensor was measured for 600 seconds and then in turn, dissociation of the compound from the albumin measured for another 600 seconds. Data was analyzed using the OCTET Data Analysis software 7.0.

[2] = target: recombinant HSA subunits (three separate domains of albumin) (Homo sapiens, UniProt P02768); conditions: LC-MS

With `Cc1cc(-c2ccc(N=Nc3ccc4c(S(=O)(=O)O)cc(S(=O)(=O)O)c(N)c4c3O)c(C)c2)ccc1N=Nc1ccc2c(S(=O)(=O)O)cc(S(=O)(=O)O)c(N)c2c1O` [EB, tetrasodium salt of 6,6′-{(3,3′-dimethyl[1,1′-biphenyl]-4,4′-diyl)bis[diazene-2,1-diyl]}bis(4-amino-5-hydroxynaphthalene-1,3-disulfonate)] the koff [1] was 0.178 s⁻¹, the kon [1] was 45100 M⁻¹ s⁻¹ and the “HSA subunit observed to complex with the compound” value [2] was “Only domain III subunit”.

Counter-ions that a name gives are not always drawn.
